Assay results published in ChEMBL document CHEMBL3286287, “Identification of a new selective dopamine D4 receptor ligand” (Bioorg Med Chem, 2014).

Columns and labels:
[1] = Selectivity ratio of Ki for human dopamine D3 receptor to Ki for rat dopamine D4 receptor
[2] = Selectivity ratio of Ki for human dopamine D2 receptor to Ki for rat dopamine D4 receptor

Row | SMILES | Ratio Ki [1] | Ratio Ki [2]
1 | Fc1ccc(OCCCN2CCN(c3ccc(Cl)cc3)CC2)cc1 | 128 | 56.5
2 | Fc1ccc2c(c1)CC(CCN1CCN(c3ccc(Cl)cc3)CC1)C2 (centres undefined) | 213 | 109
